Laboratory results reported in PubChem BioAssay (NCATS).
Where “and” joins values, the source holds several entries; their conditions need not be identical. Equal values may be shown once. The list shows a part of the results, in another mix than the full data. Records with an inconclusive call do not appear. For some assays here: Results with a measured potency or affinity are listed apart. Calls of active or inactive are those of the source. Unless noted, the call rests on the fitted dose curve.

The chains behind the UniProt entries cited, without tags or fusion partners. Residues count along the entry.
UniProt P10828, whole entry: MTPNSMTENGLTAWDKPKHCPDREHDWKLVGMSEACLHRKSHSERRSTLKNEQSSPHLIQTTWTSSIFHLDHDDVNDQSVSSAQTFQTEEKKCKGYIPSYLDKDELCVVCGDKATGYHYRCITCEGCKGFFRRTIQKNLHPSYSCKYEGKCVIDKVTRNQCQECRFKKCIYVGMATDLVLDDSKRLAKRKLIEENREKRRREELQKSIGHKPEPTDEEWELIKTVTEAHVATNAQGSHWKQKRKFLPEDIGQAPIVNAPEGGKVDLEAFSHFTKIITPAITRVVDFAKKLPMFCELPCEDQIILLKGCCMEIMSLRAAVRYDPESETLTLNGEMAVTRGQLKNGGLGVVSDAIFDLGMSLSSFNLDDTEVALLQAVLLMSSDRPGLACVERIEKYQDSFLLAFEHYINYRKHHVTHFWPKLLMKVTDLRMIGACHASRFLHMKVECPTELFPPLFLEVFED
UniProt Q12809, 1-548 isoform 6: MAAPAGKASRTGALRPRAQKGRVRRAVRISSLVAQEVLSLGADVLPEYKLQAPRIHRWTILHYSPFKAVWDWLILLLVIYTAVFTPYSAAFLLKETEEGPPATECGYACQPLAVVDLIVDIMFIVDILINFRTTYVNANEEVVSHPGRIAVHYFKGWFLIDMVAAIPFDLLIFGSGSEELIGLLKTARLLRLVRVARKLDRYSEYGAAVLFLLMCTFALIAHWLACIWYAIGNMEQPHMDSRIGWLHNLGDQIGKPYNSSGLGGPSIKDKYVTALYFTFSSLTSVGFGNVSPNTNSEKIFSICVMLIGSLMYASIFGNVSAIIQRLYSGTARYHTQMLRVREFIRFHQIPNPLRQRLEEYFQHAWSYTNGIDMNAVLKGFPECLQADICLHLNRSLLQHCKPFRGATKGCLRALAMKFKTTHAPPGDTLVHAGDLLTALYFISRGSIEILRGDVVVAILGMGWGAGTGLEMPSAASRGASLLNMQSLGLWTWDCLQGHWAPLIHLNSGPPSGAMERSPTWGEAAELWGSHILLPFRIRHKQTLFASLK

Columns and labels:
[1] = target: Vitamin D3 receptor (Homo sapiens) (UniProt P11473); assay: qHTS assay for small molecule agonists of vitamin D receptor signaling (AID 588543); conditions: HEK293T VDR-UAS-bla, beta-lactamase ratio, 16 h; at 76.8 µM (top of the series);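 further: 0% = DMSO basal and 100% = reference agonist control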
Excerpt: NIH Chemical Genomics Center [NCGC]
U.S. Environmental Protection Agency [EPA]
National Institutes of Environmental Health Sciences [NIEHS]
National Toxicology Program [NTP]
The Vitamin D receptor (VDR) is a member of nuclear hormone receptor superfamily and it plays a critical role in calcium homeostasis and bone metabolism. It plays a role in inducing cell differentiation, inhibiting cell growth and in thrombogenicity. So, VDR that mediates these effects represents a pharmacological target in prevention and treatment of hyperproliferative malignancies, such as cancer and psoriasis, cardiovascular, immunological, inflammatory and renal diseases etc.
NCGC Assay Protocol Summary
Using a beta-lactamase reporter-gene under control of Vitamin D receptor (VDR) response element, a cell-based assay [GeneBLAzer (VDR -UAS-bla assay developed by Invitrogen] was used to measure VDR ligands signaling. GeneBLAzer VDR -UAS-bla HEK293T cells were used with assay medium containing 2% charcoal-stripped FBS. The assay was performed in clear bottom black Greiner 1536-well plates. 1-alpha,25-Dihydroxy vitaminD3 was used as a positive control in the screen. Library compounds were measured for their ability to stimulate the reporter gene activity. Compounds were screened in a titration series in 1536-well format. […]
8. Detection; Fluorescence; Envision plate reader

[2] = target: Retinoic acid receptor RXR-alpha (Homo sapiens) (UniProt P19793); assay: qHTS assay for small molecule agonists of retinoid X receptor alpha signaling (AID 588544); conditions: HEK293T RXRa-UAS-bla, beta-lactamase reporter, 18 h; at 76.7 µM (top of the series);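 further: 0% = DMSO basal wells and 100% = reference agonist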
[3] = target: Thyroid hormone receptor beta (Homo sapiens) (UniProt P10828); assay: qHTS assay for small molecule agonists of thyroid hormone receptor beta signaling (AID 588545); conditions: TR-UAS-bla GripTite HEK 293, beta-lactamase ratio, agonist mode, 18 h, percent of T3 response, DMSO as zero; at 76.7 µM (top of the series);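 further: 0% = DMSO only and 100% = 10 nM T3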
Method in brief: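 TR-UAS-bla-GripTite HEK 293 cells in medium with 2% charcoal/dextran FBS, 0.1 mM NEAA and 1 mM sodium pyruvate were treated with titrated compounds for 18 hrs at 37 C. Beta-lactamase reporter was read with CCF4 dye (ex 405, em 460/530 nm); EC50 from Hill fits.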

[4] = target: Retinoic acid receptor RXR-alpha (Homo sapiens) (UniProt P19793); assay: qHTS assay for small molecule antagonists of retinoid X receptor alpha signaling (AID 588546; active means well fitted inhibition curve with a large enough effect in the signal ratio, with a control signal flat, not every such curve was filed as active; the % refers to the signal ratio;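 further: cells stimulated with 9-cis-retinoic acid as agonist; on the % scale 0 is the no-effect control and ±100 the full control effect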); conditions: HEK293T RXRa-UAS-bla, beta-lactamase ratio, antagonist mode
Method in brief: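 Beta-lactamase reporter inhibition, read as CCF4 fluorescence ratio (ex 405, em 460/530 nm) after 2 h at RT. HEK293T UAS-bla cells, 2500/well, were stimulated with 9-cis-RA at 500 or 100 nM final alongside test compound for 18 h at 37 C.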

[5] = target: Thyroid hormone receptor beta (Homo sapiens) (UniProt P10828); assay: qHTS assay for small molecule antagonists of thyroid hormone receptor beta signaling (AID 588547; active means well fitted inhibition curve with a large enough effect in the signal ratio, with a control signal flat, not every such curve was filed as active; the % refers to the signal ratio); conditions: TR-UAS-bla HEK293, beta-lactamase ratio, antagonist mode, 18 h; stronger effect = lower value
Method in brief: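 TR-UAS-bla GripTite HEK293 cells in 2% charcoal/dextran FBS medium; compounds 0.59 nM to 92 uM with T3 at 0.4nM final, 18 h at 37 C. Beta-lactamase read by CCF4 fluorescence (460/530 nm); Hill fits gave IC50 and efficacy.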

[6] = target: Voltage-gated inwardly rectifying potassium channel KCNH2 (Homo sapiens) (UniProt Q12809); assay: qHTS Assay for Small Molecule Inhibitors of the Human hERG Channel Activity (AID 588834; active means well fitted curve in the direction sought with a large enough effect; an effect the other way counts as inactive or inconclusive;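 further: U2OS cells transduced with hERG by BacMam; top concentration of the series differs between compounds; on the % scale 0 is the no-effect control and ±100 the full control effect; lower thallium flux fluorescence means stronger hERG block; nearly all actives have a fitted effect of over 50% in size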); conditions: U2OS BacMam hERG, FluxOR thallium flux fluorescence
[7] = S16 Schwann cell viability assay (CellTiter-Glo assay) (AID 624031; active means well fitted curve in the direction sought with a large enough effect; an effect the other way counts as inactive or inconclusive; further: nearly all actives have a fitted effect of over 70% in size; further: potency means the concentration at half of the fitted maximal effect); conditions: S16 rat Schwann cells viability, 24 h; series mostly up to 57.5 µM
Method in brief: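 Native S16 rat Schwann cells in DMEM/10% FBS without phenol red were incubated overnight, then exposed to compounds for 24 h at 37 °C/5% CO2. Viability was read as ATP luminescence (CellTiter-Glo), normalized to no-cell wells and DMSO (0%).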

[8] = S16 Schwann cell PMP22 intronic element firefly luciferase assay (AID 624032; active means well fitted curve in the direction sought with a large enough effect; an effect the other way counts as inactive or inconclusive; further: nearly all actives have a fitted effect of over 30% in size; further: potency means the concentration at half of the fitted maximal effect;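 on activity change, negative = inhibition: plate controls were DMSO for no effect and PTC124 positive control mean for full effect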); conditions: S16 rat Schwann cells, PMP22 element FLuc, 24 h; series mostly up to 57.5 µM
[9] = S16 Schwann cell PMP22 intronic element beta-lactamase assay (AID 624044); conditions: S16 rat Schwann cells, PMP22 element beta-lactamase FRET, 24 h; at 38.3 µM (top of the series);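 further: 0% = DMSO and -100% = potassium clavulanate positive control; nearly all actives have a fitted effect of over 15% in size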

O=[N+]([O-])C(Cl)(Cl)Cl
inactive: activation [1] 2.31% and -2.65% | activation [2] 13.6% and -8.22% | activation [3] 10.1% and -10.6% | max response [4] 3.97% and -35.6% | inhibition [5] -11.9% and -8.48% | activity change, negative = inhibition ([6]; at 92.2 µM (top of the series)) 21.4%

CN(CCCl)CCCl
inactive: activation [3] -21% | activity change, negative = inhibition ([6]; at 46.1 µM (top of the series)) 1.97% | activity change, negative = inhibition ([6]; at 92.2 µM (top of the series)) 9.47%
active: Potency [7] 14.4 µM | Potency [8] 2.56 µM

CCC(=O)N(c1ccccc1)C1CCN(CCc2ccccc2)CC1
inactive: Potency [7] | Potency [8] | ratio activity, negative = inhibition [9] -6.8%
